{"sequences": {"note": "Protein sequences, listed by entry. Tags and fused reporters are not part of them.", "UniProt P35372, whole entry": "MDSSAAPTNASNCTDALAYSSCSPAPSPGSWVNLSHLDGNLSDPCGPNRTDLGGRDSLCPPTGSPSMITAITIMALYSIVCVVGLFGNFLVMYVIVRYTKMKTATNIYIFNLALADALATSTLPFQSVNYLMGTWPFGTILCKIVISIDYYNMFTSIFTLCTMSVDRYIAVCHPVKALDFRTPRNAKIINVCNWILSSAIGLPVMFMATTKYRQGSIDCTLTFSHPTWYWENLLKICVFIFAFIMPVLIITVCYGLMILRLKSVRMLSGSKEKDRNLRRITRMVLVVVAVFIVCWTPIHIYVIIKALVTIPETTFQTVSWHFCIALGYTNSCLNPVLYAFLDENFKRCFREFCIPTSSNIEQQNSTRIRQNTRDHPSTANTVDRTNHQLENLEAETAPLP", "UniProt P35462, whole entry": "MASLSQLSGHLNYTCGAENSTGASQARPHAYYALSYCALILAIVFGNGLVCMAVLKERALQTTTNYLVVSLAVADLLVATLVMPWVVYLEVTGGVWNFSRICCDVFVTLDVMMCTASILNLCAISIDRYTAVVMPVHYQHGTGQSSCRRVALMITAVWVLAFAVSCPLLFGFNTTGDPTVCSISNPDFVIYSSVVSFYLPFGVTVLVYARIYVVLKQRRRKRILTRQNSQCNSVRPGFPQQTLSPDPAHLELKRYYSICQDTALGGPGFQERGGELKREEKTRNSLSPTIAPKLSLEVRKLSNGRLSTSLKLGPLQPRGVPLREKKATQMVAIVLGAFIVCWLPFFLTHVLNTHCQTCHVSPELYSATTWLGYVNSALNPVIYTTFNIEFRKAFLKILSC"}, "source": "paper PMC9308496", "about": "(Journal of medicinal chemistry, 2021)", "key": {"hMOR": {"target": "hMOR (Homo sapiens, UniProt P35372)", "assay": "Radioligand competition binding at hMOR with [3H]-DAMGO"}, "hD3R": {"target": "hD3R (Homo sapiens, UniProt P35462)", "assay": "Radioligand competition binding at hD3R with [3H]-N-methylspiperone"}}, "data": [{"smiles": "N#CC(CCN1CCN(c2cccc(Cl)c2Cl)CC1)(c1ccccc1)c1ccccc1", "note": "[compound 13, 4-(4-(2,3-Dichlorophenyl)piperazin-1-yl)-2,2-diphenylbutanenitrile]", "values": [{"measurement": "reduced MOR binding, fold", "setting": "hMOR; relative to analogous amide 23", "result": "~ 320 fold"}, {"measurement": "reduced D3R binding, fold", "setting": "hD3R; relative to analogous amide 23", "result": "~ 13 fold"}]}, {"smiles": "CCc1cccc(N2CCN(CCC(c3cccc(O)c3)c3cccc(O)c3)CC2)c1Cl", "note": "[compound 55, 3,3’-(3-(4-(2-chloro-3-ethylphenyl)piperazin-1-yl)propane-1,1-diyl)diphenol]", "values": [{"measurement": "loss of affinity at MOR, binding Ki fold less than 30 and 23", "setting": "hMOR; relative to 30 and 23", "result": "> 300", "unit": "fold"}]}, {"smiles": "O=C(NCCCCN1CC[C@]2(c3cccc(O)c3)CCC[C@H]1[C@H]2O)c1cc2ccccc2[nH]1", "note": "[compound 62, N-(4-((1S,5S,9S)-9-Hydroxy-5-(3-hydroxyphenyl)-2-azabicyclo[3.3.1]nonan-2-yl)butyl)-1H-indole-2-carboxamide]", "values": [{"measurement": "improved D3R affinity, fold", "setting": "hD3R", "result": "~ 172 fold"}]}]}
